Test: Clearance in rat after iv administration
Conditions: in vivo

OC(CCN1CCCCC1)(c1ccccc1)C1CC2C=CC1C2 (stereo unspecified) [BIPERIDEN]
clearance: 68 mL/min/kg

— ChEMBL document CHEMBL1614630, “Extrapolation of preclinical pharmacokinetics and molecular feature analysis of "discovery-like" molecules to predict human pharmacokinetics” (Drug Metab Dispos, 2006)
